Values of other authors as cited in patent US8815778B2, “PH modulation method to detect ligand-receptor binding” (The Texas A&M University System, priority 2008, dated 2014).

Details: 397 nm; cited from earlier work

Substance: Coumarin 39
- σ01 (λ): 4.7 (397 nm) 10^−17 cm^2
